Values quoted from earlier work as cited in patent publication US20240173233A1, “COSMETIC SACHET FOR REDUCING AGE-RELATED SYMPTOMS IN HUMAN SKIN” (Bloo Pharmapeutica Inc., priority 2022, published 2024).

Tested on: in vitro reconstructed 3D human skin model
Conditions: even at high concentrations

In the case of `CN(C)c1ccc2nc3ccc(N(C)C)cc3[s+]c2c1.[Cl-]` [methylene blue, [7-(dimethylamino)phenothiazine-3-ylidene]-dimethylazanium chloride], the skin irritation is listed as “did not cause irritation even at high concentrations”.
